Consider five molecules from patent US7097988B1 (ADVANCED RESEARCH AND TECHNOLOGY INSTITUTE, dated 2006).

Sequences of proteins named here, by UniProt entry; tags and fusion partners are left off. A change or cut given only in a name is not applied to a line headed by its entry.
UniProt P01210: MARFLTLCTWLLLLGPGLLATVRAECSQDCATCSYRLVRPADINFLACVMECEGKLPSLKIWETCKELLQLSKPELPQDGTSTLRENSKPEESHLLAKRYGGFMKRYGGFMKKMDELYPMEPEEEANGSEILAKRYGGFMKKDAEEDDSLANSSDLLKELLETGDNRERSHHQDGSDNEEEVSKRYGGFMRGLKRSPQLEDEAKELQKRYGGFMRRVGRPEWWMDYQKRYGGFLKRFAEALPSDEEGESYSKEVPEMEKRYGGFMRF

One experiment deals with cloned rat μ receptor (Rattus norvegicus, UniProt P33535, V245I). As to conditions: previously reported; cited from earlier work.
Experiment [1] addresses rat μ opioid receptor (inhibition of adenylyl cyclase) (Rattus norvegicus, UniProt P33535, V245I). The experiment is described as follows: Cyclic AMP assay in transfected CHO cells, naive or chronically morphine-treated.
Another experiment concerns the target mouse kappa receptor (Mus musculus, UniProt P33534). As to conditions: cited from earlier work.
Experiment [2] concerns the target T1, cloned human μ opioid receptor (Homo sapiens, UniProt P35372).
T1 construct: the cDNA containing the open reading frame of the receptor was cloned downstream of the human cytomegalovirus promoter in the mammalian expression vector pcDNA3; expressed in transfected cells; host or cells: COS-7 (transient)
The experiment is described as follows: biochemical. In kind it is binding.

Experiment [3] concerns the target T2, cloned human mu opioid receptor (human, UniProt P35372 1-400).
T2 construct: Full-length receptor expressed from pcDNA3 in COS-7 cells (membranes) or from mRNA in Xenopus oocytes; also called human µ opioid receptor; human µ receptor
The experiment is described as follows: displacement of 1.3 nM [3H]DAMGO; membranes of COS-7 cells expressing the human µ receptor.

Experiment [4] addresses T2, cloned human mu opioid receptor. The experiment is described as follows: inhibition of [3H]DAMGO binding; membranes of COS-7 cells expressing the human µ receptor.
Experiment [5] shares this target. The experiment is described as follows: inhibition of 2 nM [3H]DAMGO binding; membranes of COS-7 cells expressing the human µ receptor.

`C[C@@H](NC(=O)[C@@H](N)Cc1ccc(O)cc1)C(=O)NCC(=O)N(C)[C@@H](Cc1ccccc1)C(=O)NCCO` [DAMGO, [D-Ala^2, N-Me-Phe^4, Gly-ol^5]-enkephalin]: the Kd on cloned rat μ receptor is 0.57 nM. In experiment [1], this molecule showed an EC50 of around 30 nM.
Take `CCC(=O)C(CC(C)N(C)C)(c1ccccc1)c1ccccc1` (centres unmarked) [Methadone]: the “affinity for the mouse κ receptor (in words)” value at mouse kappa receptor is listed as “little or no affinity”.
Molecule `CN1CC[C@@]23CCCC[C@@H]2[C@@H]1Cc1ccc(O)cc13` [dextrorphan] came in with a Ki in experiment [2] above 1000 nM.
In the case of YGGFM (peptide, UniProt P01210 100-104, looked up, mature) [Met-enkephalin], in experiment [3], the IC50 stood at 4.1 nM and the affinity, expressed as Ki, was 2.2 nM.
Take YGGFMTSEKSQTPLVTLFKNAIIKNAYKKGE (peptide, UniProt P01189 237-267, looked up, mature) [β-endorphin]: the Ki in experiment [4] and in experiment [5] was 0.94 nM in each case.

What is called Kd is the concentration at which binding is half-saturated. A word on the EC50: it is the concentration that produces a half-maximal response. Low values mean an effect from little substance, high ones a need for much substance. The Ki is a dissociation constant, usually derived from enzyme kinetics or from competition with a known ligand. The term IC50 denotes the point on the concentration scale where inhibition reaches its midpoint. A high value points to weaker potency.
